Test results as given in PMC6603201.

Protein sequences, listed by entry. Tags and fused reporters are not part of them. Residues count along the entry.
UniProt P30882, 24-91: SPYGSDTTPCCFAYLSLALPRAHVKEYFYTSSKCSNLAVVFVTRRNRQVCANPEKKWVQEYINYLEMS

Columns and labels:
Test in all cases: SPR; CBP-FLAG immobilised by amine coupling on a CM5 chip (300-400 RU, 10 mM sodium acetate pH 4.5); serial dilutions of mouse chemokine flowed in triplicate for 3 min, 10 min dissociation; 25°C; HBS-EP buffer (20 mM HEPES, 150 mM NaCl, 3.4 mM EDTA, 0.005% Polysorbate 20, pH 7.4); Biacore X100; global fit with a 1:1 binding model
[1] = target: PVNZ112.6-CBP (Parapoxvirus of red deer in New Zealand (PVNZ), strain RD86)
[2] = target: PVNZ112.3-CBP (Parapoxvirus of red deer in New Zealand (PVNZ), strain RD86)
[3] = target: PVNZ112.0-CBP (Parapoxvirus of red deer in New Zealand (PVNZ), strain RD86)

Question: Which Kd [1] does the source give for “recombinant mouse CCL5 (from UniProt P30882 24-91) (ligand)” here?
Answer: 1.74 nM

Question: What about the koff [1] of the same substance?
Answer: 0.0479 s⁻¹

Question: And the kon [1]?
Answer: 2.75e+07 M⁻¹ s⁻¹

Question: And the Kd [2]?
Answer: 31.5 nM

Question: And the koff [2]?
Answer: 0.052 s⁻¹

Question: And the kon [2]?
Answer: 1.65e+06 M⁻¹ s⁻¹

Question: And the Kd [3]?
Answer: > 230 nM
